Literature values, collected in patent publication US12144788B2, “Visual cycle modulators” (CASE WESTERN RESERVE UNIVERSITY, priority 2017, dated 2024).

The chains behind the UniProt entries cited, without tags or fusion partners. Where a name states a change or a piece, a line headed by the entry shows the natural chain unless it says otherwise.
UniProt Q28175: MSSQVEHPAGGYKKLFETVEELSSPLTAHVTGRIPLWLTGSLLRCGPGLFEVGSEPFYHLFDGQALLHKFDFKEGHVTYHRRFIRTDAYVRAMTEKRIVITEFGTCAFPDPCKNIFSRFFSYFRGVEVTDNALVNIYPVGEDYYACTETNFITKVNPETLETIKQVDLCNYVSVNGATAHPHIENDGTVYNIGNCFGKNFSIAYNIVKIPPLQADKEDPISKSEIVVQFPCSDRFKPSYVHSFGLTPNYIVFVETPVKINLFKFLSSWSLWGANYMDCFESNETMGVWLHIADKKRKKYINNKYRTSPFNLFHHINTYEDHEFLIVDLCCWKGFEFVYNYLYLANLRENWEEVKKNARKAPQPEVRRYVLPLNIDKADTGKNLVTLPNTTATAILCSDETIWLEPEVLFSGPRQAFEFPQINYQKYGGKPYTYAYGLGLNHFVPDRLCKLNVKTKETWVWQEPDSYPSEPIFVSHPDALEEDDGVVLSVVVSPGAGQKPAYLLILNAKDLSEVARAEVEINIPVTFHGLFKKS

Target: RPE65 (Bos taurus, UniProt Q28175)
Conditions: previously reported; cited from earlier work

## NCC[C@@H](O)c1cccc(OCC2CCCCC2)c1
  times more potent than the S-isomer: ~1.6 times
